High-throughput results deposited in PubChem by National Center for Advancing Translational Sciences (NCATS).
TDP1 cell noCPT – qHTS for Inhibitors of human tyrosyl-DNA phosphodiesterase 1 (TDP1): qHTS in cells in absence of CPT; Potency, µM (titrated, usually from 46.2 µM), for inactives: at the top dose activity change, negative = growth inhibition, actives largely listed as inhibitors; 420,000 compounds, 15% hits; AID 686978, 2013; DT40 Tdp1-/- hTDP1 cells, no CPT, ATP luminescence, 48 h; further: potency means the concentration at half of the fitted maximal effect; on the % scale 0 is the no-effect control and ±100 the full control effect; nearly all actives have a fitted effect of over 55% in size
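No-CPT arm: Tdp1-/-;hTDP1 DT40 cells (400/well) plus compounds, incubated ≥48 hr at 37 °C. Readout CellTiter-Glo luminescence.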
DT40 TDP1 CPT – DT40-hTDP1 cell growth loss with CPT; chicken DT40 Tdp1-/-;hTDP1 cells + 20 nM CPT, ATP luminescence, 48 h; 420,000 compounds, 12% hits; Potency, µM (titrated, usually from 46.2 µM), inactives show top-dose activity change, negative = growth inhibition, hits mostly inhibitors; further: potency means the concentration at half of the fitted maximal effect; on the % scale 0 is the no-effect control and ±100 the full control effect; nearly all actives have a fitted effect of over 55% in size
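Cell growth measured by CellTiter-Glo luminescence after a minimum 48 h, 37 C compound exposure with 20 nM CPT in Tdp1-knockout DT40 cells stably expressing hTDP1, seeded 400/well; qHTS titration format.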
TDP1 block – blocks human tyrosyl-DNA phosphodiesterase 1. recombinant TDP1, AlphaScreen DNA substrate cleavage. 350,000 compounds, 0.28% hits. Potency, µM (titrated, usually from 130 µM), without a hit: at the top dose activity change, negative = inhibition, hits mostly inhibitors. Q9NUW8; further: potency means the concentration at half of the fitted maximal effect; on the % scale 0 is the no-effect control and ±100 the full control effect; nearly all actives have a fitted effect of over 40% in size
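Here, a 5' biotin and 3' phosphotyrosine-FITC DNA oligonucleotide reports Tdp1 activity: intact substrate bridges AlphaScreen beads, while cleavage leaves a 3' phosphate and drops signal. All incubations at room temperature.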
uPA surface inh – inhibitors of cell surface uPA generation; cell surface uPA generation assay, qHTS; Potency, µM (top dose mostly 38.3 µM), inactives show top-dose activity change, negative = inhibition, most hits filed as inhibitors; 330,000 compounds, 0.31% hits; AID 540303; active means well fitted inhibition curve with a large enough effect; inconclusive means small, poorly fitted or top-dose-only effect; inactive means no such curve, though single readings can be large or run the other way; tested in mouse RAW 264.7 cells; further: potency means the concentration at half of the fitted maximal effect; on the % scale 0 is the no-effect control and ±100 the full control effect; nearly all actives have a fitted effect of over 55% in size
miR-21 reporter – raises the signal of a miR-21 reporter | HeLa miR-21 FLuc reporter, luciferase, 48 h | Potency, µM (highest dose often 38.3 µM), for inactives: at the highest dose reporter change, positive = more light | 340,000 tested, under 10 active | AID 2288; active = well fitted rising curve with a large enough effect; inconclusive = small, poorly fitted or top-dose-only effect; inactive = no such curve, though single readings can be large or run the other way;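 also: % of control where 0% means no effect; miR-21 action dims this reporter so a rising signal means less miR-21 action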
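Compounds were titrated across several concentrations (up to approximately 40 uM) and incubated 48 hours with HeLa miR-21-FLuc reporter cells (miR-21 target sequence downstream of FLuc, endogenous miR-21). Readout was firefly luciferase luminescence after lytic detection reagent.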
Starred values were filed as active, the others as inactive. An excerpt weighted towards active compounds, which were near 16% of everything screened. Unless noted, the call rests on the fitted dose curve; in most records, active means well fitted curve in the direction sought with a large enough effect; inconclusive means small, poorly fitted or top-dose-only effect, or another doubt; inactive means no such curve, though single readings can be large; an effect the other way counts as inactive or inconclusive.

`O=C(/C=C/c1ccc(OCCCF)cc1)Nc1ccnc(-c2ccncc2)n1` gave TDP1 cell noCPT 23µM*, DT40 TDP1 CPT inconclusive, TDP1 block 6%, uPA surface inh 4% and miR-21 reporter 22%.
O=C(NCc1ccco1)c1cc(-c2cccs2)on1 was read as TDP1 cell noCPT 14µM*, DT40 TDP1 CPT 8.9µM*, TDP1 block -2% and miR-21 reporter -63%.
`O=C(NCCCn1ccnc1)c1cc(-c2cccs2)on1` gave TDP1 cell noCPT 4.6µM*, DT40 TDP1 CPT 4.6µM*, TDP1 block 8%, uPA surface inh -11% and miR-21 reporter -125%.
C#CC[N+](C)(C)CC#Cc1ccc(C)cc1 was read as TDP1 cell noCPT -6%, DT40 TDP1 CPT -13%, TDP1 block 4%, uPA surface inh inconclusive and miR-21 reporter 4%.
`COc1cccc(CNC(=O)CCc2c(C)c3cc4c(C)coc4c(C)c3oc2=O)c1` gave TDP1 cell noCPT inconclusive, DT40 TDP1 CPT inconclusive, TDP1 block 0% and miR-21 reporter -9%.
For Cc1ccc(NC(=O)C2(C)CCN2Cc2cccc3c2OCO3)cc1O (stereo not drawn) the results were TDP1 cell noCPT inconclusive and DT40 TDP1 CPT 16µM*.
Screening CCCC(=O)N1CCC1(C)C(=O)Nc1ccc(C)cc1 (stereo not drawn) returned TDP1 cell noCPT -6% and DT40 TDP1 CPT -2%.
For COc1cccc(CN2CCC2(C)C(=O)Nc2cccc(Oc3ccccc3)c2)c1F (stereo not drawn) the results were TDP1 cell noCPT 7.3µM* and DT40 TDP1 CPT 10µM*.
COc1cccc(NC(=O)C2(C)CCN2Cc2cccc(OC)c2F)c1 (stereo not drawn) was read as TDP1 cell noCPT 21µM* and DT40 TDP1 CPT inconclusive.
For Cc1ccc(NC(=O)C2(C)CCN2C(=O)Cc2ccccc2Cl)cc1C (stereo not drawn) the results were TDP1 cell noCPT inconclusive and DT40 TDP1 CPT -23%.
For COc1cccc(CN2CCC2(C)C(=O)Nc2ccc(C)cc2)c1F (stereo not drawn) the results were TDP1 cell noCPT 23µM* and DT40 TDP1 CPT 16µM*.
COc1cccc(CN2CCC2(C)C(=O)Nc2ccc3c(c2)OCO3)c1F (stereo not drawn) was read as TDP1 cell noCPT inconclusive and DT40 TDP1 CPT 23µM*.
`COc1cccc(CN2CCC2(C)C(=O)Nc2ccc(C)c(O)c2)c1F` (stereo not drawn) gave TDP1 cell noCPT 12µM* and DT40 TDP1 CPT 12µM*.
For COc1ccc(NC(=O)C2(C)CCN2Cc2cccc(OC)c2F)cc1OC (stereo not drawn) the results were TDP1 cell noCPT 13µM* and DT40 TDP1 CPT 23µM*.
Screening COc1ccc(NC(=O)C2(C)CCN2C)cc1OC (stereo not drawn) returned TDP1 cell noCPT -5% and DT40 TDP1 CPT -9%.

Quoted at random: three entries already listed
For Cc1ccc(NC(=O)C2(C)CCN2Cc2cccc3c2OCO3)cc1O (stereo not drawn) the results were TDP1 cell noCPT inconclusive and DT40 TDP1 CPT 16µM*.
For COc1cccc(CN2CCC2(C)C(=O)Nc2cccc(Oc3ccccc3)c2)c1F (stereo not drawn) the results were TDP1 cell noCPT 7.3µM* and DT40 TDP1 CPT 10µM*.
C#CC[N+](C)(C)CC#Cc1ccc(C)cc1 was read as TDP1 cell noCPT -6%, DT40 TDP1 CPT -13%, TDP1 block 4%, uPA surface inh inconclusive and miR-21 reporter 4%.

(continued)
Cc1[nH]nc(N=CC2=C(O)CC(C)(C)CC2=O)c1-c1ccccc1 was read as TDP1 cell noCPT 16µM*, DT40 TDP1 CPT inconclusive, TDP1 block 1%, uPA surface inh 1% and miR-21 reporter -19%.
Screening CS(=O)(=O)Nc1cccc(C2=NN(C(=O)c3ccco3)C(c3ccco3)C2)c1 (stereo not drawn) returned TDP1 cell noCPT inconclusive, DT40 TDP1 CPT 16µM*, TDP1 block 2%, uPA surface inh -10% and miR-21 reporter 8%.
For CCS(=O)(=O)Nc1cccc(C2=NN(C(=O)c3ccco3)C(c3ccco3)C2)c1 (stereo not drawn) the results were TDP1 cell noCPT 2.6µM*, DT40 TDP1 CPT 4.6µM*, TDP1 block 11%, uPA surface inh -18% and miR-21 reporter 26%.
`CS(=O)(=O)Nc1ccc(C2=NN(C(=O)c3ccco3)C(c3ccccc3F)C2)cc1` (stereo not drawn) gave TDP1 cell noCPT 18µM*, DT40 TDP1 CPT inconclusive, TDP1 block 2%, uPA surface inh 0% and miR-21 reporter 20%.
